The subject of this assay is HEK293 cells transfected with control plasmid (pCMV) or plasmids expressing ORF8, ORF10 or M protein. Put plainly: Apoptosis assay: early (pSIVA) and late (propidium iodide) apoptosis index, Kinetic Apoptosis Kit. The note with it: 2 μM, 24 h, vs vehicle only.

Structures are written as SMILES.

On to `CCCCCc1cc(O)c2c(c1)OC(C)(C)c1ccc(C)cc1-2` [cannabinol, Cannabinol], for which the “Early Apoptosis Index” value is reported as “this augmentation is significant”.

The values are drawn from patent publication US20240024337A1, “INTERACTION OF SARS-COV-2 PROTEINS WITH MOLECULAR AND […] […] HOST CELLS AND FORMULATIONS TO TREAT COVID-19” (AKSEERA PHARMA CORP., priority 2020, published 2024).
